# Laboratory results reported in ChEMBL document CHEMBL3585337, “Selective inhibition of prolyl 4-hydroxylases by bipyridinedicarboxylates” (Bioorg Med Chem, 2015).
# Amino acid sequences for entries named in this document (tags omitted). A change or cut given only in a name is not applied to a line headed by its entry.
# UniProt P13674: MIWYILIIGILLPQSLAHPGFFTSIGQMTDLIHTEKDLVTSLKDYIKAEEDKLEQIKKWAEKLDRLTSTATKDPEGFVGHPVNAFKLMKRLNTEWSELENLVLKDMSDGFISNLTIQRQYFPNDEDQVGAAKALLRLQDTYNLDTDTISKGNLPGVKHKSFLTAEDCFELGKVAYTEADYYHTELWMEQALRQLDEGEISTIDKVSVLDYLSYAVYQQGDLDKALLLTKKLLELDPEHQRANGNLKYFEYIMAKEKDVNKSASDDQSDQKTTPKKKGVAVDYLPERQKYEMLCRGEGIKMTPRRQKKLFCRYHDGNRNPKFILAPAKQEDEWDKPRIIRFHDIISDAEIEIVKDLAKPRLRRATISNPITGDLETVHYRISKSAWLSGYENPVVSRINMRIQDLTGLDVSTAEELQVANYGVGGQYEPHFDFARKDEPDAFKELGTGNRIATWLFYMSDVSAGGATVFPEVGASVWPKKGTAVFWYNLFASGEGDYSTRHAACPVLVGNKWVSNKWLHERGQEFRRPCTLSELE
# Target: Prolyl 4-hydroxylase subunit alpha-1 (Homo sapiens, UniProt P13674)
# Experiment: Inhibition of human recombinant CP4H1 expressed in Escherichia coli Origami B(DE3) at 10 uM pre-incubated for 2 mins followed by alpha-ketoglutarate addition using dansylGlyProProGlyOEt substrate in Tris-HCl buffer at pH 7.8 at 30 degC by HPLC method
smiles,measurement,value
O=C(O)c1ccc(-c2ccc(C(=O)O)cn2)nc1,inhibition,> 90%
